Laboratory results from PMC6540285, “Evaluation of Protein Kinase Inhibitors with PLK4 Cross-Over Potential in a Pre-Clinical Model of Cancer” (International Journal of Molecular Sciences, 2019).

Sequences of proteins named here, by UniProt entry; tags and fusion partners are left off. A change or cut given only in a name is not applied to a line headed by its entry.
UniProt Q07002: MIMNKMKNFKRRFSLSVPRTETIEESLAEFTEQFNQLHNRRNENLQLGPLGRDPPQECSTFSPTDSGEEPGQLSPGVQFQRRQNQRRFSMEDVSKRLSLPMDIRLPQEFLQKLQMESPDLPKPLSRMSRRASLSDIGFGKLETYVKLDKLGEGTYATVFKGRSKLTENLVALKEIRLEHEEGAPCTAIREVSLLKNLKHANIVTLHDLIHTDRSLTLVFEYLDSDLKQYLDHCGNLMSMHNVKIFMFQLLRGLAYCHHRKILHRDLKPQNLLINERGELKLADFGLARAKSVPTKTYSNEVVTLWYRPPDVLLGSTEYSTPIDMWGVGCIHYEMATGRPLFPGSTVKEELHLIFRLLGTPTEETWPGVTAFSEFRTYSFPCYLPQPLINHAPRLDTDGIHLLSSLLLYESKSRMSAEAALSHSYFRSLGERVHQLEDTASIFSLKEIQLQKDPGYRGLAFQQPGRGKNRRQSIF
UniProt O94921: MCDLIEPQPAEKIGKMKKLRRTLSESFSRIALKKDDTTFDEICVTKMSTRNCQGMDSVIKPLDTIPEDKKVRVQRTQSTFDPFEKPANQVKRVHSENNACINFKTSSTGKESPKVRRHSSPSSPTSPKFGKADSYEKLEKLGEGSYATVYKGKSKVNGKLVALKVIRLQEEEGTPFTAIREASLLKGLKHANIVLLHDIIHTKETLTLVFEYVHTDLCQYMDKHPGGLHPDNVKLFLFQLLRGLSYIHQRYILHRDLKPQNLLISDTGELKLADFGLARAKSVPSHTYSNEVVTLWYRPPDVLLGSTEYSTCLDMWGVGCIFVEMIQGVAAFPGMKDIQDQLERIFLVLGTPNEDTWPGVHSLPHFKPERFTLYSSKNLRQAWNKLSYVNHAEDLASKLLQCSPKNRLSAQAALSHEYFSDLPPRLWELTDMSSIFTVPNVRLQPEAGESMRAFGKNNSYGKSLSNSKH
UniProt Q00537: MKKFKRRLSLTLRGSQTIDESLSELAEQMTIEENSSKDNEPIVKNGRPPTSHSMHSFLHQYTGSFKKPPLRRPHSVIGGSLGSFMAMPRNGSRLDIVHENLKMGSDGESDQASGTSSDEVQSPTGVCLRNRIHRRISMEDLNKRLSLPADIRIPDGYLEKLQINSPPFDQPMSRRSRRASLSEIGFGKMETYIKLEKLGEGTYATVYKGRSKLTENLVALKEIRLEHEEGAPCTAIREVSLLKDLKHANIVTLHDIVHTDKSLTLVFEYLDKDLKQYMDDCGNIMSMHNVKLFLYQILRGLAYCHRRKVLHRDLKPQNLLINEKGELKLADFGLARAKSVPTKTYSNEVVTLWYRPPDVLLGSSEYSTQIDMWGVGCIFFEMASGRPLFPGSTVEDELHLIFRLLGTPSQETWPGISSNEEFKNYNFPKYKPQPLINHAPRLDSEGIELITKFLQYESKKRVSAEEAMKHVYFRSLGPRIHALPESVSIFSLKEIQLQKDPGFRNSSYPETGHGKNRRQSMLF

Columns and labels:
MON cells = experiment: cells; details: read-out: MTT: IC50 of the proliferation assay
BT-12 cells = type: cell-based; details: Homo sapiens, BT-12, read-out: MTT: IC50 of the proliferation assay
D283 cells [1] = type: cell-based; details: D283, read-out: MTT: IC50 of the proliferation assay
BT-16 cells = type: cell-based; details: BT-16, read-out: MTT: IC50 of the proliferation assay
DAOY cells = type: cell-based; details: Homo sapiens, read-out: MTT: IC50 of the proliferation assay
CDK18/cyclin Y = CDK18/cyclin Y (Homo sapiens, UniProt Q07002); experiment: biochemical; details: read-out: % Inhibition Avg
CDK14 (PFTK1)/cyclin Y = CDK14 (PFTK1)/cyclin Y (Homo sapiens, UniProt O94921); experiment: biochemical; details: read-out: % Inhibition Avg
CDK17/cyclin Y = CDK17/cyclin Y (Homo sapiens, UniProt Q00537); experiment: biochemical; details: read-out: % Inhibition Avg
D283 cells [2] = experiment: PrestoBlue Cell Viability assay; type: cell-based; details: D283, read-out: PB: IC50 of the PrestoBlue Viability assay
Method: Cell viability was assessed using the Presto Blue™ Cell Viability reagent (Thermo Fisher Scientific, Carlsbad, CA, USA) following the manufacturer’s instructions. Cells were plated in 96-well plates at the same densities described above for the proliferation assay. The fluorescence was measured after 24, 48, 72, and 96 h at concentrations ranging from 0.001 to 10 µM of the inhibitor. All assays were performed in triplicate.

For `COc1ccc2c(c1)[C@]1(C[C@H]1c1ccc3c(/C=C/c4ccc(CN5C[C@@H](C)O[C@@H](C)C5)cc4)n[nH]c3c1)C(=O)N2` [CFI-400945, (1r,2s).2-(3-((e).4-(((cis).2,6-dimethylmorpholino)methyl)styryl). 1h.Indazol-6-yl)-5′-methoxyspiro[cyclopropane-1,3′-indolin]-2′-one], the IC50 (MON cells) was 67.4 nM, the IC50 (BT-12 cells) was 7250 nM and the IC50 (D283 cells [1]) was 71 nM. The IC50 (BT-16 cells) was 3300 nM and the IC50 (DAOY cells) was 47.1 nM.

`O=C(c1ccc(/C=C/c2n[nH]c3ccccc23)cc1)N1CCNCC1` [KW-2449] was tested, and the inhibition at 10 µM (CDK18/cyclin Y) was 88%, the inhibition at 10 µM (CDK14 (PFTK1)/cyclin Y) was 66% and the inhibition at 10 µM (CDK17/cyclin Y) was 97%.

Work on `COc1c(Nc2cc(C)[nH]n2)nc(Sc2ccc(S(=O)(=O)Cc3cccc([N+](=O)[O-])c3F)cc2F)nc1N1CCOCC1` [centrinone] yielded an IC50 (MON cells) of 1840 nM, an IC50 (D283 cells [2]) of 6650 nM and an IC50 (BT-12 cells) of 3880 nM. For the same compound, the IC50 (D283 cells [1]) was 6950 nM, the IC50 (BT-16 cells) was 1560 nM and the IC50 (DAOY cells) was 1250 nM.

Where two headings read alike, the source gives them in different places.
